Reference: PubChem BioAssay AID652163 (Broad Institute, 2013)
Only a part is listed here, and it is no random draw. Calls of active or inactive are those of the source.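 Rule for the calls: active = mean inhibition of at least 70% across replicates, with every replicate also reaching that level; inconclusive = mean inhibition reaches 70% but some replicates fall short; inactive = mean inhibition below 70%.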

The chains behind the UniProt entries cited, without tags or fusion partners. Where a name states a change or a piece, a line headed by the entry shows the natural chain unless it says otherwise.
UniProt P26447: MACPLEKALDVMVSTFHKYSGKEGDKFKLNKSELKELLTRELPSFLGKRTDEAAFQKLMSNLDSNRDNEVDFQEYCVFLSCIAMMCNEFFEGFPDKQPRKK

Biological target: Protein S100-A4 (Homo sapiens) (UniProt P26447)
Assay: human S100A4 protein-peptide interaction blockers – biochemical, fluorescence polarization, TAMRA-MyoIIA peptide, primary screen (AID 652163)
Details: at 10.7 µM, stronger effect = higher value

SMILES	inhibition
Cc1ccc(NCCc2c([N+](=O)[O-])cc([N+](=O)[O-])cc2[N+](=O)[O-])cc1	inactive: 6.95%
Nc1cccc2c([As](=O)(O)O)cccc12	inactive: 17.7%
CCCOP(=S)(Nc1nc(N)cc(=O)[nH]1)OCCC	inactive: -2.89%
CCOP(=O)(Nc1cccc2ccccc12)OCC	inactive: 4.64%
O=C(OC1CN2CCC1CC2)c1ccc(Cl)cc1 (configuration not stated)	inactive: -2.07%
COc1cc(C(=O)NCC2(N3CCOCC3)CCCCC2)cc(Cl)c1OC(C)C	inactive: 1.83%
O=[As](O)(O)c1cccnc1	inactive: 0.157%
CS(=O)(=O)c1ccc(Cl)c(NC(=O)COC(=O)C(O)(c2ccccc2)c2ccccc2)c1	inactive: -3.16%
O=[As](O)(c1cccc(O)c1)c1cccc(O)c1	inactive: -2.06%
NC(=O)Nc1ccc([As](=O)(O)O)cc1	inactive: -6.45%
N#CCCN(C(=O)COC(=O)C(O)(c1ccccc1)c1ccccc1)c1ccc(F)cc1	inactive: -6.35%
CCOP1(=S)c2c(C)nn(CCC#N)c2N=C(c2ccc(F)cc2)N1C (configuration not stated)	inactive: 3.83%
CN(C(=O)Cc1ccccc1)[C@@H]1CC[C@]2(CCCO2)C[C@H]1N1CCCC1	inactive: 2.61%
CN(C)C(=O)c1cc([N+](=O)[O-])cc2c1-c1c(cc([N+](=O)[O-])cc1[N+](=O)[O-])C2=O	inactive: -11.9%
CN(C(=O)Cc1ccc(Cl)c(Cl)c1)[C@H]1CC[C@@]2(CCCO2)C[C@@H]1N1CCCC1	inactive: -5.67%
CCOP1(=S)c2c(C)nn(CCC#N)c2N=C(c2ccccc2F)N1C (configuration not stated)	inactive: 1.02%
O=P(Nc1nccs1)(Oc1ccccc1)Oc1ccccc1	inactive: -0.687%
Nc1ccccc1[As](=O)(O)c1ccccc1	inactive: 1.82%
O=C(O)COc1ccc([As](=O)(O)O)cc1[N+](=O)[O-]	inactive: -3.5%
Cc1ccc(S(=O)(=O)N(CCCN)CCCc2c(C)nc(N)[nH]c2=O)cc1	inactive: -1.77%
Nc1cccc([As](=O)(O)c2ccccc2)c1	inactive: -0.79%

SMILES	inhibition
NS(=O)(=O)c1cccc(NC(=O)COC(=O)C(O)(c2ccccc2)c2ccccc2)c1	inactive: -1.4%
O=[As](O)(c1cccs1)c1cccs1	inactive: 2.07%
CC1CCC(C(C)C)C(OP(=O)(Nc2ccccn2)c2ccccc2)C1 (configuration not stated)	inactive: 0.0745%
Cc1ccc(C(=O)OC2CN3CCC2CC3)cc1 (configuration not stated)	inactive: -5.21%
CN(C)C1(CNC(=O)c2ccc(S(C)(=O)=O)cc2)CCCCC1	inactive: 3.23%
O=C(/C=C/c1ccccc1)OC1CN2CCC1CC2 (configuration not stated)	inactive: -0.508%
CCCC1OP(=O)(Nc2ccccc2)OCC1CC (configuration not stated)	inactive: 1.16%
COc1ccccc1CNC(=O)COC(=O)C(O)(c1ccccc1)c1ccccc1	inactive: 3.76%
CC(C)/C=N\N=C(\N)N[N+](=O)[O-]	inactive: -0.216%
CN(C(=O)Cc1ccc(Cl)c(Cl)c1)[C@@H]1CCCC[C@H]1N1CCCC1	inactive: -6.01%
CN(C(=O)Cc1ccc(Cl)c(Cl)c1)C1CCCC[C@@H]1N1CCCC1 (some centres not stated)	inactive: -0.724%
CCC1=CC2Cc3nc4ccc(Cl)cc4c(N)c3C(C1)C2 (configuration not stated)	inactive: -15.1%
CCOP(=O)(NC(=NC(C)c1ccccc1)NC(C)c1ccccc1)OCC (configuration not stated)	inactive: -0.694%
CN(CCCl)Cc1cc(Cl)c(NC2=NCCN2)c(Cl)c1	inactive: -1.43%
CCOP(=O)(Nc1ccc(C)cn1)OCC	inactive: -13.8%
O=P1(N(CCCl)CCCl)NCCC(C(F)(F)F)O1 (configuration not stated)	inactive: -3.67%
CC(C)(C)C(=O)NC(Sc1ncccn1)C(Cl)(Cl)Cl (configuration not stated)	inactive: -3.51%
O=C(OC1CN2CCC1CC2)c1cccc([N+](=O)[O-])c1 (configuration not stated)	inactive: 2.14%
CCOC(=O)c1ccc(NC(=O)C(C)(CCl)SC)cc1 (configuration not stated)	inactive: -2.87%
COP1(=S)c2c(C)nn(CCC#N)c2N=C(c2ccc(F)cc2)N1C (configuration not stated)	inactive: -6.84%
COC(=O)C1(C)COP(=O)(N2CCCC2)OC1 (configuration not stated)	inactive: -1.19%

SMILES	inhibition
O=C(O)C(=O)c1ccc(N(CCCl)CCCl)cc1	inactive: -12%
O=C(Nc1ccncc1[N+](=O)[O-])c1ccc([N+](=O)[O-])cc1[N+](=O)[O-]	inactive: -6.66%
CCOC(=O)Nc1cccc([As](=O)(O)O)c1	inactive: -1.92%
O=P(Nc1ccccn1)(c1cccc2ccccc12)c1cccc2ccccc12	inactive: -2.39%
Cc1cc(SC(NC=O)C(Cl)(Cl)Cl)ncn1 (configuration not stated)	inactive: -1.28%
O=[N+]([O-])c1ccc(Nc2ccc(Oc3ccc([N+](=O)[O-])cc3[N+](=O)[O-])cc2)c([N+](=O)[O-])c1	inactive: 0.514%
CCOC(=O)Nc1ccc([As](=O)(O)O)c(O)c1	inactive: -3.02%
O=C(O)C(O)c1ccc(N(CCCl)CCCl)cc1 (configuration not stated)	inactive: -1.54%
CC1CCNP(=O)(N(CCCl)CCCl)O1 (configuration not stated)	inactive: -3.57%
COP(=O)(OC)N1CC1c1ccccc1 (configuration not stated)	inactive: 0.724%
CCCCOc1ccc(C(=O)NCC2(N3CCCCC3)CCCCC2)cc1OC	inactive: -5.36%
CC(C)c1ccc(OP(=O)(Nc2ccccn2)Oc2ccccc2F)cc1 (configuration not stated)	inactive: -0.702%
COC(=O)C1(C)COP(=O)(N2CCCCCC2)OC1 (configuration not stated)	inactive: 1.44%
O=C(OC1CN2CCC1CC2)c1cccc2[nH]cnc12 (configuration not stated)	inactive: 0.215%
CC(C)NC(=O)NP(=O)(Oc1ccccc1)Oc1ccccc1	inactive: 1.44%
O=[As](O)(c1ccc(O)cc1)c1ccccc1O	inactive: -1.91%
C[As](=O)(O)c1cccc(C(=O)O)c1	inactive: -0.418%
COc1cc(C(=O)NCC2(N3CCOCC3)CCCCC2)ccc1OCC(C)C	inactive: 0.114%
O=[N+]([O-])c1ccc(-c2cc([N+](=O)[O-])c(O)c([N+](=O)[O-])c2)cc1	inactive: -2.8%
[N-]=[N+]=NC1CCCCC1NC(=O)c1cc([N+](=O)[O-])cc([N+](=O)[O-])c1 (configuration not stated)	inactive: -5.36%
